Tested on: Human Peripheral Blood Mononuclear Cells (PBMC) or Enriched Adherent Mononuclear Cells
Assay: Cell assay: IL-1β assay with human PBMC or enriched adherent mononuclear cells
Conditions: read-out: Cell IC50; Example 6 table; LPS-stimulated cells, mature IL-1β in supernatant by ELISA

## CCC(=O)[C@H](CC(=O)O)NC(=O)Cn1c(Cc2ccccc2)ccc(NC(=O)CCc2ccccc2)c1=O
  IC50: 30 µM

From patent US20110015371A1 (Vertex Pharmaceuticals Incorporated, priority 1994, published 2011)
